Laboratory results reported in PubChem BioAssay (NCI).
Some results for these compounds are left out of this collection, so the calls shown say nothing about other tests.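 Results reflect a 48-hour exposure of cells in 96-well plates to compound at five concentrations. The concentration for 50% growth inhibition is given as GI50. TGI denotes the concentration required for complete inhibition of growth.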

What was measured:
Assay in all cases: growth of human tumour cells (NCI), 48 h; in the data active = GI50 below about 0.43 µM; inactive = the rest
SF-295 CNS = test system: SF-295 CNS
HS 578T breast = test system: HS 578T breast
UACC-62 melanoma = test system: UACC-62 melanoma
MCF7 breast = test system: MCF7 breast
SK-OV-3 ovarian = test system: SK-OV-3 ovarian
SR leukemia = test system: SR leukemia
NCI/ADR-RES ovarian = test system: NCI/ADR-RES ovarian
UACC-257 melanoma = test system: UACC-257 melanoma
CCRF-CEM leukemia = test system: CCRF-CEM leukemia
UO-31 renal = test system: UO-31 renal
A549 NSCLC = test system: A549 NSCLC
DU-145 prostate = test system: DU-145 prostate
OVCAR-5 ovarian = test system: OVCAR-5 ovarian
K-562 leukemia = test system: K-562 leukemia
T-47D breast = test system: T-47D breast
LOX IMVI melanoma = test system: LOX IMVI melanoma
RPMI-8226 leukemia = test system: RPMI-8226 leukemia
HCC-2998 colon = test system: HCC-2998 colon
HCT-15 colon = test system: HCT-15 colon
NCI-H226 lung = test system: NCI-H226 lung
SK-MEL-28 melanoma = test system: SK-MEL-28 melanoma
MDA-MB-231 breast = test system: MDA-MB-231 breast
HL-60(TB) leukemia = test system: HL-60(TB) leukemia
SN12C renal = test system: SN12C renal
ACHN renal = test system: ACHN renal
EKVX NSCLC = test system: EKVX NSCLC
SF-268 CNS = test system: SF-268 CNS
HT29 colon = test system: HT29 colon

C=C(C)C#CC(O)(C(=O)OC1CN2CCC1CC2)C1CCCCC1 (stereo unspecified)
inactive: GI50 (SF-295 CNS) > 100 µM | GI50 (HS 578T breast) 59.1 µM | GI50 (UACC-62 melanoma) > 100 µM | GI50 (MCF7 breast) > 100 µM | GI50 (SK-OV-3 ovarian) > 100 µM | GI50 (SR leukemia) > 100 µM | GI50 (NCI/ADR-RES ovarian) > 100 µM | GI50 (UACC-257 melanoma) > 100 µM | GI50 (CCRF-CEM leukemia) > 100 µM | GI50 (UO-31 renal) 64.4 µM | GI50 (A549 NSCLC) > 100 µM | GI50 (DU-145 prostate) > 100 µM | GI50 (OVCAR-5 ovarian) > 100 µM | GI50 (K-562 leukemia) > 100 µM | GI50 (T-47D breast) > 100 µM | GI50 (LOX IMVI melanoma) > 100 µM | GI50 (RPMI-8226 leukemia) > 100 µM | GI50 (HCC-2998 colon) > 100 µM | GI50 (HCT-15 colon) > 100 µM | GI50 (NCI-H226 lung) > 100 µM | GI50 (SK-MEL-28 melanoma) > 100 µM | GI50 (MDA-MB-231 breast) > 100 µM | GI50 (HL-60(TB) leukemia) > 100 µM | GI50 (SN12C renal) > 100 µM | GI50 (ACHN renal) > 100 µM | GI50 (EKVX NSCLC) > 100 µM | GI50 (SF-268 CNS) > 100 µM | GI50 (HT29 colon) > 100 µM
> 100 µM: TGI (SF-295 CNS) | TGI (HS 578T breast) | TGI (UACC-62 melanoma) | TGI (MCF7 breast) | TGI (SK-OV-3 ovarian) | TGI (SR leukemia) | TGI (NCI/ADR-RES ovarian) | TGI (UACC-257 melanoma) | TGI (CCRF-CEM leukemia) | TGI (UO-31 renal) | TGI (A549 NSCLC) | TGI (DU-145 prostate) | TGI (OVCAR-5 ovarian) | TGI (K-562 leukemia) | TGI (T-47D breast) | TGI (LOX IMVI melanoma) | TGI (RPMI-8226 leukemia) | TGI (HCC-2998 colon) | TGI (HCT-15 colon) | TGI (NCI-H226 lung) | TGI (SK-MEL-28 melanoma) | TGI (MDA-MB-231 breast) | TGI (HL-60(TB) leukemia) | TGI (SN12C renal) | TGI (ACHN renal) | TGI (EKVX NSCLC) | TGI (SF-268 CNS) | TGI (HT29 colon)
